# System: Walker 256 tumor cells
# Assay: Growth inhibition of tumor cells (cell number per ml)
# Type: cell-based
# Details: Walker 256 tumor cells incubated with conjugate, HSA as control; cell number per ml after 24 hours and 48 hours
# Experimental: Each of the conjugates celliton blue-DTPA-HSA and novantron-DTPA-HSA as well as HSA as control were incubated with Walker 256 tumor cells under conventional conditions. The cell number per ml was determined as usual after 24 hours and 48 hours, respectively.
# Example 4 was carried out like Example 3, acid black-DTPA being administered as a conjugate.
row,Substance,growth inhibition of tumor cells
1,"novantron-DTPA-HSA: Mitoxantrone (novantron) reacted with DTPA anhydride, then linked to human serum albumin (HSA)",growth inhibition
2,"celliton blue-DTPA-HSA: Celliton blue (1,4,5,8-tetraaminoantraquinone) reacted with DTPA anhydride, then linked to HSA",growth inhibition

# Reference: patent publication US6410695B1, “Individual medicament dosing conjugate” (Deutsches Krebsforschungszentrum Stiftung Des Öffentlichen …, priority 1995, dated 2002)
